# Test results taken from patent US4927941A, “Fluorine-containing nitroazole derivatives and radiosensitizer comprising the same” (Yasunori Nishijima & Daikin Industries Ltd., priority 1987, dated 1990).
# Read-outs that look alike come from different tables or passages of the source.
# Experiments:
# [1] = in vivo
compound,measurement,setting,value
"COCC(O)Cn1ccnc1[N+](=O)[O-] (centres unmarked) [Misonidazole, 1-(2-Nitro-1-imidazolyl)-3-methoxy-2-propanol]",LD50,[1],1500 mg/kg
same,LD50,in vivo,1500 mg/kg
